Biological target: Mitogen-activated protein kinase kinase kinase kinase 1 (Mus musculus) (UniProt P70218)
Settings: Balb/c, dose 10-30 mg/kg, route po, time 6.0 hrs

Amino acid sequences for entries named in this document (tags omitted).
UniProt P70218, whole entry: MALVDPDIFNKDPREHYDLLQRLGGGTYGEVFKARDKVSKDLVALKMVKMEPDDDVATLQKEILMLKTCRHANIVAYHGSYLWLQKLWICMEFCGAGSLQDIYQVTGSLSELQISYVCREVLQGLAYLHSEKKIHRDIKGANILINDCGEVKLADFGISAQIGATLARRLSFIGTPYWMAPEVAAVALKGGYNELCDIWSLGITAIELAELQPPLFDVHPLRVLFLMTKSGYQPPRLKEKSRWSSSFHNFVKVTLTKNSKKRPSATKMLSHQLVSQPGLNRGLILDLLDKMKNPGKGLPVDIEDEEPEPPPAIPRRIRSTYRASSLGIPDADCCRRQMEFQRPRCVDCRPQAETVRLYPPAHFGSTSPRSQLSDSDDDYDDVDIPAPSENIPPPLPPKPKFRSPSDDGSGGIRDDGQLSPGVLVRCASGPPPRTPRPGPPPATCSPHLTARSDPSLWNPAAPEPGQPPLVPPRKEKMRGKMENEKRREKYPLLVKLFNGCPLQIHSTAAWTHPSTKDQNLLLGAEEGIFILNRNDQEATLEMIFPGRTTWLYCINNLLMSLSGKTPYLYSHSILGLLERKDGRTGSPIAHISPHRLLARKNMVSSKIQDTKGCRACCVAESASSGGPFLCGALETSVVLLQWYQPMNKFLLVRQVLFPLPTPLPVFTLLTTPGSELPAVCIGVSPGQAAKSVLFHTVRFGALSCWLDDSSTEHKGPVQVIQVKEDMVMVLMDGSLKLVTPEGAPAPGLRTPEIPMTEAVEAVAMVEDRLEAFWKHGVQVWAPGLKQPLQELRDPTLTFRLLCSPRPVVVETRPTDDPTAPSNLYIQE

Compound: COc1cc(Nc2ccc3c(n2)CN(C)C32CCN(C3COC3)CC2)c(C(N)=O)nc1-c1cccc2c1ncn2C
- inhibition: > 50%
